Source: patent US9688662B2, “N-(2,3-dihydro-1H-pyrrolo[2,3-b]pyridin-5-yl)-4-quinazolinamine and N-(2,3-dihydro-1H-indol-5-yl)-4-quinazolinamine derivatives as perk inhibitors” (Janssen Pharmaceutica NV, priority 2013, dated 2017)

How the values were obtained:
[1] = target: T1, PERK (Homo sapiens, UniProt Q9NZJ5); assay: In-vitro PERK enzyme inhibition assay (LanthaScreen, KIN_PERK); assay type: biochemical; set-up: GST (N); purchased Invitrogen PV5106; conditions: recombinant GST-PERK, GFP-eIF2 alpha substrate, 5 μM ATP, 60 minutes
T1 sequence (Q9NZJ5 30-1116): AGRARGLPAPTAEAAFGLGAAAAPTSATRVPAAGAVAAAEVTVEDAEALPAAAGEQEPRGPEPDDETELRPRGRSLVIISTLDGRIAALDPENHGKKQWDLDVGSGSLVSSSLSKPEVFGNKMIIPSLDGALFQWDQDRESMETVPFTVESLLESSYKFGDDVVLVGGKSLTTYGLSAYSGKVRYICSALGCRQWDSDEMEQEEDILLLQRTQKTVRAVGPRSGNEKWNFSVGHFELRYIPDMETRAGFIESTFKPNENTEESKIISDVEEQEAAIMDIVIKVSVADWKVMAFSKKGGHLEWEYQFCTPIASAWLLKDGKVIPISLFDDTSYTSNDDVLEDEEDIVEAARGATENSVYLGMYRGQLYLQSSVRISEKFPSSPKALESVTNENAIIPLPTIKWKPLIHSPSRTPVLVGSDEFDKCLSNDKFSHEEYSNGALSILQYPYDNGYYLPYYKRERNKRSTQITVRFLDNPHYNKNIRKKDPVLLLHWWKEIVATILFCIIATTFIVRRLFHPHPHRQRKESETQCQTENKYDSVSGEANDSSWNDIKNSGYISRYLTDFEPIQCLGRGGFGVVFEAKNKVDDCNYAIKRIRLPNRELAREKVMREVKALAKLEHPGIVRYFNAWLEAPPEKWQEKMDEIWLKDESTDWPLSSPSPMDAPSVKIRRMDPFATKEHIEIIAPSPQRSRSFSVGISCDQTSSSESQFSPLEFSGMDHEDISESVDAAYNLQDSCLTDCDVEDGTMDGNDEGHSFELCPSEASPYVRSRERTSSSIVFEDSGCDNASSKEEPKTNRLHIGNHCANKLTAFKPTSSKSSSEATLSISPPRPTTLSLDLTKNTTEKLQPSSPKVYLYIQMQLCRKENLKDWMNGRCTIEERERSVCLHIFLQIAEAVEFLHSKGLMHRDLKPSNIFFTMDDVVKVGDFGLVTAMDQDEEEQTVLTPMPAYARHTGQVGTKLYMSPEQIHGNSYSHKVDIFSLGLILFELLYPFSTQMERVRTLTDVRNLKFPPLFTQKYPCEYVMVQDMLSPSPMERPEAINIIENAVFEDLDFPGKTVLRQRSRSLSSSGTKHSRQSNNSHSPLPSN
Experimental: Pharmacology i) In-Vitro PERK Enzyme Inhibition Assay (KIN_PERK pIC50)
The compounds of the invention were tested for inhibitory activity against PERK in an enzyme inhibition assay.
A biochemical PERK kinase assay using LanthaScreen® technology from Invitrogen using recombinant GST-PERK (Invitrogen PV5106), GFP-eIF2 alpha (full length) as substrate (Invitrogen PV4809) and the Terbium-labeled antibody (Tb-anti-peIF2alpha (pSer52); Invitrogen PV4816) as detection reagent, was performed essentially as described by the manufacturer, using following specific parameters: […]

[2] = target: T1, PERK; assay: Cell-based PERK inhibition assay (TR-FRET, phosphorylation of GFP-eIF2 alpha in HEK293 cells, tunicamycin); conditions: HEK293 (LanthaScreen eIF2α GripTite) cells, compounds 60 min, tunicamycin 2 microg/ml 120 min
Experimental: A cell-based TR-FRET assay to measure inhibition of phosphorylation of GFP-eIF2 alpha expressed in HEK293 cells by compounds was set up as follows:
LanthaScreen® eIF2α GripTite cells (Invitrogen M4387) were plated and incubated for 16-20 h at 37° C. and 5% CO2, incubated with test compounds for 60 min, and then stimulated with tunicamycin (2 microg/ml) for 120 min. Culture medium was aspirated from the wells and, the cells were lysed in LanthaScreen® Cellular Assay Lysis Buffer (Invitrogen; PV5598), supplemented with protease inhibitor cocktail (Sigma P8340, 1/1000 dilution) and phosphatase inhibitor cocktail (Sigma P0044, 1/1000 dilution), including 2 nM terbium-labeled eIF2a pSer52 antibody (Invitrogen; PV4816).

SMILES: COc1cc2ncnc(Nc3ccc4c(c3)CCN4C(=O)Cc3c(C)[nH]c4ccccc34)c2cc1OC [Compound 1, 1-[5-[(6,7-dimethoxyquinazolin-4-yl)amino]indolin-1-yl]-2-(2-methyl-1H-indol-3-yl)ethanone]
- KIN_PERK pIC50 [1]: 9.1
- P-eIF2alpha_Lantha_cell pIC50 [2]: 7.7
